pKi: −log10 of the molar value.
Target: T1, 3-dehydroquinate dehydratase (Mycobacterium tuberculosis, UniProt P9WPX7)
T1 sequence (P9WPX7 whole entry): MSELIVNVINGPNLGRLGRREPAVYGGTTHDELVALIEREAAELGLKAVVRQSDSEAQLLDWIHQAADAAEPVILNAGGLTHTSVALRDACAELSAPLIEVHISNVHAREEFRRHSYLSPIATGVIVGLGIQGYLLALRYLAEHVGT
Assay: Competitive inhibition of Mycobacterium tuberculosis DHQ2

## Cc1ccc2sc(COC3=C[C@@](O)(C(=O)O)C[C@@H](O)[C@@H]3O)cc2c1
  pKi: 7.37
